The values below are quoted from earlier work in publication PMC5575935.

The chains behind the UniProt entries cited, without tags or fusion partners. Residues count along the entry.
UniProt Q07817, whole entry: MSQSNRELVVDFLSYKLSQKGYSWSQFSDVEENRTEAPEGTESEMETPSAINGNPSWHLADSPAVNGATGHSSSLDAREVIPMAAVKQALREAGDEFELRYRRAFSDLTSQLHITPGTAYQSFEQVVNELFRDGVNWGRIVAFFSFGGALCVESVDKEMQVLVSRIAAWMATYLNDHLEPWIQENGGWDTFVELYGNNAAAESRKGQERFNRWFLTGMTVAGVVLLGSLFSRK
UniProt Q16611, 2-211: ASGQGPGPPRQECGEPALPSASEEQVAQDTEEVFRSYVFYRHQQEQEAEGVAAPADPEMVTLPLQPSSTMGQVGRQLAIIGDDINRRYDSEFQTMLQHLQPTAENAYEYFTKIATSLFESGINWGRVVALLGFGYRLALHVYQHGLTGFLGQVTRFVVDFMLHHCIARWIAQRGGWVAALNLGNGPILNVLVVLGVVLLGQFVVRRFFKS

For the series, the target named is Bcl-xL (Homo sapiens) (UniProt Q07817).

pKd: −log10 of the molar value.

Take Bak peptide (from UniProt Q16611): the pKd – broadly, −log10 of the Kd, conventionally taken in molar units – was 6.32.
